The chains behind the UniProt entries cited, without tags or fusion partners. Where a name states a change or a piece, a line headed by the entry shows the natural chain unless it says otherwise.
UniProt P30872: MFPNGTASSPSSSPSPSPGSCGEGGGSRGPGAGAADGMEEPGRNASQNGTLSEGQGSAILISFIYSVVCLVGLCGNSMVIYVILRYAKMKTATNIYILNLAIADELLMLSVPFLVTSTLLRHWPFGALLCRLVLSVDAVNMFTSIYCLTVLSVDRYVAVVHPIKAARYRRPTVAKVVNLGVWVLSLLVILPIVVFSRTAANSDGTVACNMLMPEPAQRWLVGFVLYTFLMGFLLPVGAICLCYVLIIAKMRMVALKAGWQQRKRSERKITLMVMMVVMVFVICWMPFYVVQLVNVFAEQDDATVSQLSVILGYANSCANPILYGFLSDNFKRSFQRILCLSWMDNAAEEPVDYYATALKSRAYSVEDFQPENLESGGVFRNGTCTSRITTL
UniProt P32745: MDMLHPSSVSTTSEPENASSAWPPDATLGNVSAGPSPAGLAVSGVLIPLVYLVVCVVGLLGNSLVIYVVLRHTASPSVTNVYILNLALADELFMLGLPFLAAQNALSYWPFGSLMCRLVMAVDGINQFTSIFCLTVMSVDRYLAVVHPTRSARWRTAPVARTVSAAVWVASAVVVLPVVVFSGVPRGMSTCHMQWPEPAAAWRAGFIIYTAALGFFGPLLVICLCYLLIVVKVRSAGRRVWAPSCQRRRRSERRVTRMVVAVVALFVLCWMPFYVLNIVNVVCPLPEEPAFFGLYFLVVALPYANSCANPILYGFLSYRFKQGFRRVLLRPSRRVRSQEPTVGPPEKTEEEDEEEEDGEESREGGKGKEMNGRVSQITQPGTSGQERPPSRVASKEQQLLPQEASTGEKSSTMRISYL
UniProt P31391: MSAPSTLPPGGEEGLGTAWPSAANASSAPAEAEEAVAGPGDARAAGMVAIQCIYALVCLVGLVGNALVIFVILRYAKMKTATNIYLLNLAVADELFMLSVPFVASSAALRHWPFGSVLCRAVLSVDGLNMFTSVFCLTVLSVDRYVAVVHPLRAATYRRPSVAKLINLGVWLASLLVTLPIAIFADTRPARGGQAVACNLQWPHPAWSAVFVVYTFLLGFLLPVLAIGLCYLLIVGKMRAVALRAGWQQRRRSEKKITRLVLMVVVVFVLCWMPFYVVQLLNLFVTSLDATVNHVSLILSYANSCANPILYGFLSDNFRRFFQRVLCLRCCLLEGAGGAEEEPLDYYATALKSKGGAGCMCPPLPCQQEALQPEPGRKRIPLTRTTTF
UniProt P35346: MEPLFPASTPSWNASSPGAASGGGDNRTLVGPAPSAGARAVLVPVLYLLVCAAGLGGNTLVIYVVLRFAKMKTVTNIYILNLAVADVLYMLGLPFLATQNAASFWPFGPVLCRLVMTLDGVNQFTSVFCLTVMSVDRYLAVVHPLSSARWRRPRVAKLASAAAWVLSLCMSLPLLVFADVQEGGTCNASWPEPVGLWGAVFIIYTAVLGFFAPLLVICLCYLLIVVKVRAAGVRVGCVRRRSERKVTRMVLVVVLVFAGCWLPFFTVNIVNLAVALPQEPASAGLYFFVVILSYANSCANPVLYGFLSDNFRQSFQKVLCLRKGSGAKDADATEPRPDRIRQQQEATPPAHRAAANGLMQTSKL
UniProt P30874: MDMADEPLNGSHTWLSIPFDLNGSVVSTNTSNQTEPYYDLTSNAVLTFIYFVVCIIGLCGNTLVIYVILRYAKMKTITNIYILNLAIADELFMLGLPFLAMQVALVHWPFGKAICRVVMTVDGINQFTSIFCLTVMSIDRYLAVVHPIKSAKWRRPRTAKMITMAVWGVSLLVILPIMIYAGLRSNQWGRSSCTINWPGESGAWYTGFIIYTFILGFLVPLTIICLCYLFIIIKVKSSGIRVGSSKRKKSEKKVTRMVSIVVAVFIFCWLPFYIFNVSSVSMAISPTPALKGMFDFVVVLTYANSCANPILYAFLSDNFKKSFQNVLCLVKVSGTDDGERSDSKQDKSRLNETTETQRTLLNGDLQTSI

In publication PMC11336141:

Key:
human SSTR1 = target: T1, human SSTR1 (Homo sapiens, UniProt P30872); test: PRESTO-Tango β-arrestin recruitment assay, hSSTR1; format: cell-based; settings: HTLA cells
T1 construct: Tango cassette (PRESTO-Tango template of Kroeze et al. 2015); Bryan Roth (Addgene) Addgene kit # 1000000068; host or cells: HTLA cells
Text: (§1) HTLA cells were given by Prof.
(§2) The assay was done as described in ref. [12].

human SSTR3 = target: T2, human SSTR3 (Homo sapiens, UniProt P32745); test: PRESTO-Tango β-arrestin recruitment assay, hSSTR3; format: cell-based; settings: HTLA cells
T2 construct: Tango cassette (PRESTO-Tango template of Kroeze et al. 2015); Bryan Roth (Addgene) Addgene kit # 1000000068; host or cells: HTLA cells
Text: as §1, §2

human SSTR4 = target: T3, human SSTR4 (Homo sapiens, UniProt P31391); test: PRESTO-Tango β-arrestin recruitment assay, hSSTR4; format: cell-based; settings: HTLA cells
T3 construct: Tango cassette (PRESTO-Tango template of Kroeze et al. 2015); Bryan Roth (Addgene) Addgene kit # 1000000068; host or cells: HTLA cells
Text: as §1, §2

human SSTR5 = target: T4, human SSTR5 (Homo sapiens, UniProt P35346); test: PRESTO-Tango β-arrestin recruitment assay, hSSTR5; format: cell-based; settings: HTLA cells
T4 construct: Tango cassette (PRESTO-Tango template of Kroeze et al. 2015); Bryan Roth (Addgene) Addgene kit # 1000000068; host or cells: HTLA cells
Text: as §1, §2

human SSTR1-5 = test: PRESTO-Tango β-arrestin recruitment assay, panel hSSTR1-5 (selectivity); format: cell-based; settings: hSSTR1-5, β-arrestin recruitment
[1] = Solubility in aqueous solutions (observation); settings: comparison of des-glyco nG1, pG1 and venom fraction
human SSTR2 = human SSTR2 (Homo sapiens, UniProt P30874); test: PRESTO-Tango β-arrestin recruitment assay, hSSTR2; settings: for activation of hSSTR2 in words: PRESTO-Tango, HTLA cells

SMILES: CC(C)C[C@H](NC(=O)[C@H](CCCNC(=N)N)NC(=O)[C@H](CCC(N)=O)NC(=O)[C@H](CCC(=O)O)NC(=O)[C@@H]1CCCN1C(=O)[C@H](C)NC(=O)[C@@H]1C[C@@H](O)CN1C(=O)[C@@H](NC(=O)[C@@H](NC(=O)[C@H](CC(C)C)NC(=O)[C@H](CC(C)C)NC(=O)[C@@H](NC(=O)[C@H](C)NC(=O)[C@H](CC(=O)O)NC(=O)[C@H](CC(C)C)NC(=O)[C@H](CC(C)C)NC(=O)[C@@H](NC(=O)[C@H](CC(=O)O)NC(=O)[C@@H](NC(=O)[C@@H]1CCC(=O)N1)[C@@H](C)O)C(C)C)[C@@H](C)O)[C@@H](C)O)[C@@H](C)O)C(=O)N[C@@H](Cc1ccccc1)C(=O)N[C@H]1CSSC[C@@H](C(=O)N[C@@H](Cc2c[nH]c3ccccc23)C(=O)N2C[C@H](O)C[C@H]2C(=O)N[C@@H](CCCNC(=N)N)C(=O)N2C[C@H](O)C[C@H]2C(=O)N[C@@H](Cc2ccc(O)cc2)C(=O)N2CCC[C@H]2C(=O)N[C@@H](Cc2c[nH]c3ccccc23)C(N)=O)NC(=O)[C@H](CO)NC(=O)[C@H](CCCCN)NC(=O)[C@@H](Cc2c[nH]c3ccccc23)NC(=O)[C@H](Cc2ccccc2)NC1=O [des-glyco nG1]
- activation of SSTR1 in words (human SSTR1): weak activation
- activation of SSTR3 in words (human SSTR3): weak activation
- activation of SSTR4 in words (human SSTR4): weak activation
- activation of SSTR5 in words (human SSTR5): weak activation
- agonism / selectivity in words (human SSTR1-5): several orders of magnitude more potent at
- agonism / selectivity in words (human SSTR1-5; listed as Des-glyco nG1): slightly lower potencies than the venom fraction while retaining its selectivity for the hSSTR2
- solubility in aqueous solutions in words [1]: did not observe any obvious differences in the solubility
- activation of hSSTR2 in words (human SSTR2): only slightly less potent at activating the
- activation of hSSTR2 in words (human SSTR2; listed as Des-glyco nG1): retains potent activation of hSSTR2
- Hill Slope (human SSTR2; Table S9): 1.09 ± 0.11
- Span ± S.E.M. (human SSTR2; Table S9): 97.20 ± 3.16
- Emax (human SSTR2; read-out: Emax ± S.E.M., Table S9, relative to SS-14): 97.1 ± 2.65%
